# uPA surface inh = inhibitors of cell surface uPA generation; actives 0.31% (n = 330,000); Potency, µM (highest dose often 38.3 µM), for the others: at the top dose activity change, negative = inhibition, most hits filed as inhibitors; cell surface uPA generation assay, qHTS; active = well fitted inhibition curve with a large enough effect; inconclusive = small, poorly fitted or top-dose-only effect; inactive = no such curve, though single readings can be large or run the other way; tested in mouse RAW 264.7 cells; note: potency is the fitted concentration of half-maximal effect; % is set by controls: 0 for no effect and ±100 for the full control effect; nearly all actives have a fitted effect of over 55% in size
# miR-21 reporter = raises the signal of a miR-21 reporter; 340,000 tested, under 10 active; HeLa miR-21 FLuc reporter, luciferase, 48 h; Potency, µM (highest dose often 38.3 µM), without a hit: top-dose reporter change, positive = more light; active = well fitted rising curve with a large enough effect; inconclusive = small, poorly fitted or top-dose-only effect; inactive = no such curve, though single readings can be large or run the other way;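 also: % of control where 0% means no effect; miR-21 action dims this reporter so a rising signal means less miR-21 action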
#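 Compounds were titrated across several concentrations (up to approximately 40 uM) and incubated 48 hours with HeLa miR-21-FLuc reporter cells (miR-21 target sequence downstream of FLuc, endogenous miR-21). Readout was firefly luciferase luminescence after lytic detection reagent.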
# DT40 TDP1 CPT = DT40-hTDP1 cell growth loss with CPT; AID 686979; chicken DT40 Tdp1-/-;hTDP1 cells + 20 nM CPT, ATP luminescence, 48 h; Potency, µM (series often up to 46.2 µM), for inactives: at the highest dose activity change, negative = growth inhibition, usual class: inhibitors; actives 12% (n = 420,000); note: potency is the fitted concentration of half-maximal effect; % is set by controls: 0 for no effect and ±100 for the full control effect; nearly all actives have a fitted effect of over 55% in size
#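 Cell growth measured by CellTiter-Glo luminescence after a minimum 48 h, 37 C compound exposure with 20 nM CPT in Tdp1-knockout DT40 cells stably expressing hTDP1, seeded 400/well; qHTS titration format.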
# DT40 TDP1 no CPT = qHTS for Inhibitors of human tyrosyl-DNA phosphodiesterase 1 (TDP1): qHTS in cells in absence of CPT; actives 15% (n = 420,000); Potency, µM (top dose mostly 46.2 µM), for the others: top-dose activity change, negative = growth inhibition, most hits filed as inhibitors; AID 686978, 2013; DT40 Tdp1-/- hTDP1 cells, no CPT, ATP luminescence, 48 h; note: potency is the fitted concentration of half-maximal effect; % is set by controls: 0 for no effect and ±100 for the full control effect; nearly all actives have a fitted effect of over 55% in size
#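 Camptothecin absent (DMSO only). Human TDP1-complemented DT40 knockout cells, 400 cells/well, 37 °C for minimum 48 hr; ATP measured via CellTiter-Glo, 30 min dark incubation, luminescence.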
# TDP1 block = inhibitors of human tyrosyl-DNA phosphodiesterase TDP1 | Q9NUW8 | recombinant TDP1, AlphaScreen DNA substrate cleavage | Potency, µM (doses to about 130 µM), for inactives: top-dose activity change, negative = inhibition, usual class: inhibitors | actives 0.28% (n = 350,000); note: potency is the fitted concentration of half-maximal effect; % is set by controls: 0 for no effect and ±100 for the full control effect; nearly all actives have a fitted effect of over 40% in size
#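 Compounds were preincubated with Tdp1 (1 nM final) for 15 min at room temperature before substrate (15 nM final) started a 5 min reaction; beads (10 ug/ml final) were then added for 10 min before AlphaScreen detection.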
# Active calls of the source: *; ? = inconclusive; . = not tested or not shown; [ ] = remark or other dose. The list is not random: actives were taken first. Their share in the collection is about 16%. Unless noted, calls come from the whole dose curve; as a rule, active = well fitted curve in the direction sought with a large enough effect; inconclusive = small, poorly fitted or top-dose-only effect, or another doubt; inactive = no such curve, though single readings can be large; an effect the other way counts as inactive or inconclusive.
no.	structure	uPA surface inh	miR-21 reporter	DT40 TDP1 CPT	DT40 TDP1 no CPT	TDP1 block
1	Cc1cc(C)cc(CSc2ccc(S(=O)(=O)N3CCCC3)cn2)c1	17.3%	.	?	?	-10.8%
2	COc1ccc(C(C)=O)cc1CSc1ccc(S(=O)(=O)N2CCCCC2)cn1	17.8%	.	?	16.4µM*	-3.2%[56.1 µM]
3	O=S(=O)(c1ccc(SCc2ccc(Cl)cc2)nc1)N1CCCC1	-17.9%	.	?	14.6µM*	-9.2%
4	COc1ccc(CSc2ccc(S(=O)(=O)N3CCCC3)cn2)cc1F	.	.	23.1µM*	16.4µM*	.
5	O=S(=O)(c1ccc(SCCOc2ccc(Br)cc2)nc1)N1CCCC1	-9.0%	.	?	16.4µM*	-7.6%[56.1 µM]
6	O=S(=O)(c1ccc(SCCOc2ccc(Cl)cc2)nc1)N1CCCC1	-3.0%	.	?	?	-9.6%
7	NC(=O)C1CCCN(C(=O)c2cccc(NC(=O)c3cccs3)c2)C1 (centres undefined)	4.8%	.	-9.5%	-8.3%	1.9%
8	O=C(NCCc1cccc(Cl)c1)c1cccs1	-3.0%	-51.9%	?	-25.4%	-7.4%
9	COc1cc(NC(=O)c2ccc3c(Cl)c4c(nc3c2)CCC4)cc(OC)c1OC	.	-32.7%	0.3%	-16.1%	6.4%
10	O=C(O)c1ccc(Cl)c(S(=O)(=O)NCc2cccnc2)c1	-0.5%	1.9%	-9.3%	?	-7.7%
11	O=C(c1ccc(Cl)c(S(=O)(=O)NCc2cccnc2)c1)N1CCCC1	-1.3%	.	?	2.91µM*	1.3%[56.1 µM]
12	O=C(Nc1ccc(Cl)c(Cl)c1)c1cccc(S(=O)(=O)NCc2cccnc2)c1	-11.5%	21.1%	5.8µM*	11.6µM*	0.0%
13	CCC(C)NC(=S)Nc1ccc2nc(N3CCN(CC)CC3)cc(C)c2c1 (centres undefined)	?	19.3%	?	23.1µM*	4.6%
14	CCCCNC(=O)CCC(=O)Nc1ccc2nc(N3CCC(C)CC3)cc(C)c2c1	-6.6%	-8.1%	?	?	4.6%
15	Cc1cc(N2CCN(C)CC2)nc2ccc(NC(=S)NCc3cccs3)cc12	-4.4%	-18.8%	?	?	5.8%
16	CCN1CCN(c2cc(C)c3cc(NC(=S)NCc4cccs4)ccc3n2)CC1	?	2.6%	?	20.6µM*	3.5%
17	Cc1ccc(C)c(N2CCN(C(=S)Nc3ccc4nc(N5CCN(C)CC5)cc(C)c4c3)CC2)c1	-1.0%	-0.8%	16.4µM*	11.6µM*	2.6%
18	CCC(C)NC(=O)CCC(=O)Nc1ccc2nc(N3CC(C)CC(C)C3)cc(C)c2c1 (centres undefined)	-1.1%	-8.6%	-16.6%	16.4µM*	0.0%
19	Cc1ccc(S(=O)(=O)NCC(=O)NCC(=O)NCCc2ccccc2F)cc1C	0.4%	.	-1.2%	-17.9%	0.3%
20	COc1ccc(NC(=O)COC(=O)c2ccccc2SCC(=O)N2CCCC2)cc1	-1.5%	.	?	?	.

# Single records, from the list above. Order of screens: uPA surface inh	miR-21 reporter	DT40 TDP1 CPT	DT40 TDP1 no CPT	TDP1 block
# Entry for Cc1cc(N2CCN(C)CC2)nc2ccc(NC(=S)NCc3cccs3)cc12 : -4.4%	-18.8%	?	?	5.8%
# Entry for COc1ccc(NC(=O)COC(=O)c2ccccc2SCC(=O)N2CCCC2)cc1 : -1.5%	.	?	?	.

# Results in miR-21 reporter, TDP1 block and DT40 TDP1 no CPT, for 4 of the compounds above:
no.	smiles	miR-21 reporter	TDP1 block	DT40 TDP1 no CPT
2	COc1ccc(C(C)=O)cc1CSc1ccc(S(=O)(=O)N2CCCCC2)cn1	.	-3.2%[56.1 µM]	16.4µM*
3	O=S(=O)(c1ccc(SCc2ccc(Cl)cc2)nc1)N1CCCC1	.	-9.2%	14.6µM*
4	COc1ccc(CSc2ccc(S(=O)(=O)N3CCCC3)cn2)cc1F	.	.	16.4µM*
5	O=S(=O)(c1ccc(SCCOc2ccc(Br)cc2)nc1)N1CCCC1	.	-7.6%[56.1 µM]	16.4µM*

# Further entries follow.
no.	structure	uPA surface inh	miR-21 reporter	DT40 TDP1 CPT	DT40 TDP1 no CPT	TDP1 block
21	CCN1CCN(c2cc(C)c3cc(NC(=S)N4CCN(c5ccccc5)CC4)ccc3n2)CC1	-2.0%	3.4%	7.31µM*	10.3µM*	2.6%
22	COc1cc(OC)c(Cl)cc1N	-0.8%	0.1%	?	16.4µM*	6.2%
23	CCCCCCOC(=O)c1ccccc1NC(=O)/C=C/C(=O)O	-4.0%	-16.5%	16.4µM*	?	-1.0%
24	CS(=O)(=O)N1CCC2(CC1)CN(c1cccc(-c3ccccc3)c1)C2	.	.	?	18.4µM*	.
25	CS(=O)(=O)N1CCC2(CCN(c3cccc(-c4ccccc4)c3)CC2)CC1	.	.	?	20.6µM*	.
26	S=c1[nH]cnc2sc(Nc3ccccc3)nc12	-6.0%	-45.1%	14.6µM*	14.6µM*	10.3%
27	CC(C)Sc1snnc1-c1ccccc1	-3.6%	-2.4%	-6.9%	-20.9%	0.5%
28	C=CS(=O)(=O)c1c2cc(OC)ccc2nc2ccc(OC)cc12	-9.1%	.	2.31µM*	2.59µM*	.
29	COc1ccc2nc(Cl)cc(Cl)c2c1	7.3%	3.2%	-1.7%	7.7%	1.9%
30	c1coc(-c2nc3ccccn3c2Nc2ccc3c(c2)OCCO3)c1	.	-52.8%	?	-91.5%	14.7%
31	Cc1ccc(Nc2c(-c3ccco3)nc3ccccn23)cc1	-1.5%	-40.0%	-14.1%	?	-1.1%
32	Fc1ccc(Nc2c(-c3ccco3)nc3ccccn23)cc1	1.9%	-15.7%	14.6µM*	5.8µM*	11.8%

# Screening data (PubChem BioAssay)
